This note sets out measurements from paper PMC6265900.

Sequences of proteins named here, by UniProt entry; tags and fusion partners are left off. A change or cut given only in a name is not applied to a line headed by its entry.
UniProt P08246: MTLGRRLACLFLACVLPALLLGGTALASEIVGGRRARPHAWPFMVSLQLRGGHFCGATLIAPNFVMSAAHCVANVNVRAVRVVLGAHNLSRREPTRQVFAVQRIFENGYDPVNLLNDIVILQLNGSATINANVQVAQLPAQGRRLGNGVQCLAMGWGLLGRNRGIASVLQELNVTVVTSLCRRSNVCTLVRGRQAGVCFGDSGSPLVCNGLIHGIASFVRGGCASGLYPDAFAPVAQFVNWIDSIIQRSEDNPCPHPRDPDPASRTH

What is called Ki is the dissociation constant of the complex between target and ligand, obtained from inhibition or displacement.

For one assay, the target named is elastase (UniProt P08246). Description: enzyme inhibition with chromogenic substrate (Dixon plot); enzyme (FXIIa 10 nM, plasma kallikrein 80 nM, trypsin 800 nM, elastase 400 nM) incubated with 0.5, 1 and 2 uM native poecistasin in 60 uL of 50 mM Tris buffer pH 7.4 for 5 min, then 0.2 mM chromogenic substrate; absorbance at 405 nm for 10 min; Ki from Dixon plot.
The target in another assay is trypsin. The description is as above.

As to native poecistasin (natural protein), the Ki with elastase came to 547 nM; with trypsin, 9.28 nM.
